Reference: patent US9987299B2, “Methods of improving RNAi in well-differentiated airway epithelia” (University of Iowa Research Foundation, priority 2014, dated 2018)

Columns and labels:
Type in all cases: cell-based, human
HAE = test: Epithelial cell morphology after PAF-assisted transfection (H&E); conditions: 1 and 10 days after PAF-assisted transfection
Protocol: (§1) A well-studied effect of PAFR stimulation is the activation of mediators that can generate inflammatory responses (38-41). As a mediator of inflammation, PAFR activation can alter tight junction integrity in endothelial and intestinal epithelial cells. We examined the effects of PAF on tight junction integrity in airway epithelia. […] We also examined epithelial cell morphology after PAF-assisted transfection. […] Cytotoxicity was also assessed by lactate dehydrogenase release.

tight junctions of HAE = test: Tight junction integrity in HAE (ZO-1 immunostaining, confocal microscopy)
Protocol: FIG. 8. The effect of PAF on tight junction integrity in HAE. PAF was added to the apical surface at a concentration of 200 nM. The cells were fixed at the end of either 8 hours (a) or 24 hours (b) and then stained for nuclei and tight junctional protein ZO-1. The cells were then visualized by confocal microscopy. In each, top panel: x-y and bottom panel: x-z.
as §1

HAE cells = test: LDH-cytotoxicity colorimetric assay; conditions: PAF treated HAE with DsiRNA transfection
Protocol: The LDH-cytotoxicity colorimetric assay kit (BioVision, Milpitas, Calif.) was used according to the manufacturer's instructions. Experimental and control samples were assayed in triplicate. The samples consisted of HAE cells treated with PAF and transfection with negative control DsiRNA or HPRT DsiRNA. A negative control consisted of culture medium from cells treated with DsiRNA but not PAF. The positive control medium came from cells exposed to Triton x-100 (1%) both apically and basolaterally for 30 minutes at 37° C. After the treatment period, 100 μl of culture media was transferred into an optically clear 96-well plate and an equal volume of reaction mixture added to each well and incubated for up to 30 minutes at room temperature. The absorbance was measured at 495 nm using a microplate reader (VERSAmax, Molecular Devices, Sunnyvale, Calif.). The background value was subtracted and the percentage cytotoxicity was calculated using the formula: (Test sample-Negative control)/(Positive control-Negative control)*100.

## platelet activating factor [PAF]
HAE
  cell morphology compared to control treated epithelium (H&E): no changes in cell morphology
Tight junctions of HAE; 24 hour of PAF treatment
  tight junction morphology (ZO-1 immunostaining): significant alterations in tight junction morphology
Tight junctions of HAE; PAF on apical and basolateral surfaces for 8 hours
  tight junction morphology (ZO-1 immunostaining): no alteration of tight junction morphology
Tight junctions of HAE; long-term PAF treatment (greater than 24 hours)
  tight junction integrity: reduced tight junction integrity
HAE cells
  cytotoxicity by lactate dehydrogenase release: minimal evidence of cytotoxicity
